Results taken from patent US20230218581A1, “COMPOSITIONS AND METHODS COMPRISING DENDRIMERS AND THERAPEUTIC AGENTS” (The Johns Hopkins University, priority 2020, published 2023).

How the values were obtained:
AT8+ granular neurons = conditions: in vivo; tested form: 2HCl; cited from earlier work
[1] = in vivo; tested form: 2HCl; cited from earlier work
VCAM-1 = conditions: tested form: 2HCl; cited from earlier work
[2] = system: synaptic proteins (PSD-95, NR2A, GluR1); assay: synaptic protein levels after nSMase2 inhibitor treatment; conditions: in vivo; tested form: 2HCl

SMILES: O=C(C=Cc1ccc(C=CC(=O)Nc2ccc(C3=NCCN3)cc2)cc1)Nc1ccc(C2=NCCN2)cc1
- suppression of number of AT8+ granular neurons in dentate gyrus (AT8+ granular neurons): 75%
- toxicity in chronic studies [1]: no overt behavioral or physiological toxicities or body mass changes
- VCAM-1 expression (VCAM-1): lowers VCAM-1 expression
- changes in synaptic proteins (PSD-95, NR2A, GluR1) [2]: significant changes in synaptic proteins
